Measurements as given in publication PMC11971191, “Seeding-competent early tau multimers are associated with cell type-specific transcriptional signatures” (Acta Neuropathologica, 2025).

Molecular target: the molecule itself
Experiment: RT-QuIC (thioflavin T fluorescence, seeded aggregation); 0.1 mg/mL filtered soluble τ306 seeded with pre-formed τ306 aggregates; 10 mM HEPES pH 7.4, 400 mM NaCl, 40 µM heparin, 10 µM ThT, 42 °C, intermittent shaking; with or without tau KO mouse brain homogenate and N-2 supplement

B1: recombinant τ306 fragment (domain or fragment, human, UniProt P10636-8 306-378, looked up)
chain: VQIVYKPVDLSKVTSKSGSLGNIHHKPGGGQVEVKSEKLDFKDRVQSKIGSLDNITHVPGGGNKKIETHKLTF
notes: numbers count on: htau40; Cloned into pET-28a immediately after the N-terminal poly-histidine tag and thrombin site; no cleavage of the tag is described; Aggregates were made by shaking 1 mg/mL τ306 with 40 µM heparin at 37 °C for 360 h; also called τ306 tau fragment; τ306 substrate; source: E. coli BL21(DE3), purified (His-Trap nickel column, acetone precipitation, PD-10 desalting)
Question: Does B1 bind?
Answer: binds
